The values that follow come from US7129269B2 (dated 2006).

By UniProt entry, the sequences of proteins in these tests, tags left out. Where a name states a change or a piece, a line headed by the entry shows the natural chain unless it says otherwise.
UniProt P11511: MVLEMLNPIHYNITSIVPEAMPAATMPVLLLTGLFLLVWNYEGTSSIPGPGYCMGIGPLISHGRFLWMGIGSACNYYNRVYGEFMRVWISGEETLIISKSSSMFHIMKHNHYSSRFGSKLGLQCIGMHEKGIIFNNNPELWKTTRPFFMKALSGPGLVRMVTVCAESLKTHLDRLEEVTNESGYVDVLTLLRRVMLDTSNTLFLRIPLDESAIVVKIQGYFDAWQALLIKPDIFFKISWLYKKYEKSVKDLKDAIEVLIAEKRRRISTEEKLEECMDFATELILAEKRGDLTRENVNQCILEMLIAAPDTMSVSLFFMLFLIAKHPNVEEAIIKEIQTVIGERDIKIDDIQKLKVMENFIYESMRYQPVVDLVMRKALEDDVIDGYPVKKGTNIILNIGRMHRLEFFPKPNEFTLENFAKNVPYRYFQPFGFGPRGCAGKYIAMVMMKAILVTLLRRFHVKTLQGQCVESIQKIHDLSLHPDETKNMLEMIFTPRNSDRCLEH

This series addresses aromatase (Homo sapiens, UniProt P11511).

Consider `NS(=O)(=O)Oc1ccc2c(=O)cc(-c3ccccc3)oc2c1` [Compound 1, Flavone-7-O-sulphamate], for which the “% Inhibition of aromatase activity in placental microsomes at 10 μM” value was 96%.
In the case of `NS(=O)(=O)Oc1ccc2oc(-c3ccccc3)cc(=O)c2c1` [Compound 2, Flavone-6-O-sulphamate], the “% Inhibition of aromatase activity in placental microsomes at 10 μM” value is 14%.
